Reference: patent US11220482B2, “Aminopyridinemethanol compounds and their use” (UNIVERSITE AMIENS PICARDIE JULES VERNE, priority 2017, dated 2022)

Test system: S. typhimurium TA98
Test: Bacterial reverse mutation assay (Ames test)
Conditions: without S9 mix, positive control

2,4,7-trinitrofluorenone
Number of revertants by plate (Means ± SD), TA98: 525 ···
